# Reference: ChEMBL document CHEMBL3352282, “Design and synthesis of novel azapeptide activators of apoptosis mediated by caspase-9 in cancer cells” (Bioorg Med Chem Lett, 2014)
# Legend:
# [1] = tested on: MDA-MB-231; assay: Induction of cell death in serum starved human MDA-MB-231 cells at 100 uM after 16 hrs by trypan blue dye exclusion assay; type: functional
# Procedure, shortened: (§1)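 Breast cancer line serum-starved 6 h, then exposed to compound (DMSO vehicle) for 16 h at a final 50 µM or 100 µM. Cells trypsinized, stained with Trypan blue and counted. Cell death expressed as percentage, relative to vehicle. Mean ± SEM of three independent experiments, paired comparison to DMSO control.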
# [2] = tested on: MDA-MB-231; assay: Induction of apoptosis in serum starved human MDA-MB-231 cells assessed as caspase-9 activation at 100 uM after 16 hrs by Western blotting method; type: functional, cell-based
# Procedure, shortened: (§2)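 MDA-MB-231 cells serum-starved 6 h, then exposed to DMSO vehicle, etoposide, AVPI-NH₂ or analogs at one final concentration (50 or 100 µM, per line), harvested; caspase-3 and caspase-9 activation assessed by Western blotting. Quantification as mean ± SEM of three independent experiments.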
# [3] = tested on: MDA-MB-231; assay: Induction of apoptosis in serum starved human MDA-MB-231 cells assessed as caspase-3 activation at 100 uM after 16 hrs by Western blotting method; type: functional, cell-based; procedure, shortened: as §2
# [4] = tested on: MDA-MB-231; assay: Induction of cell death in serum starved human MDA-MB-231 cells at 50 uM after 16 hrs by trypan blue dye exclusion assay; type: functional; procedure, shortened: as §1
# [5] = tested on: MDA-MB-231; assay: Induction of apoptosis in serum starved human MDA-MB-231 cells assessed as caspase-9 activation after 16 hrs by Western blotting method; type: functional, cell-based; conditions: MDA-MB-231, 16 h
# Procedure, shortened: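 MDA-MB-231 cells serum-starved 6 h, treated 16 h across a concentration series (about 12.5–125 µM), harvested; total and cleaved caspase-9 immunoblotted and quantified. Mean ± SEM of two independent experiments; significance versus paired DMSO condition.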
compound,measurement,setting,value
CC[C@H](C)[C@H](NC(=O)[C@@H]1CCCN1C(=O)[C@@H](NC(=O)[C@H](C)N)C(C)C)C(N)=O,Activity,[1],50%
same,Activity,[2],Active
same,Activity,[3],Active
same,Activity,[4],11.5%
same,EC50,[5],72.7 µM

# The source made the active and inactive calls. The rule behind the calls is not given here.
